# Results taken from PMC6344527, “Toxicity and possible mechanisms of action of honokiol from Magnolia denudata seeds against four mosquito species” (Scientific Reports, 2019).
# Legend:
# [1] = test system: third-instar larvae of insecticide-susceptible Aedes aegypti; experiment: contact mortality bioassay, 24 h exposure; details: Table 7, structure-activity series
# [2] = test system: third-instar larvae of insecticide-susceptible Culex pipiens pallens; experiment: contact mortality bioassay, 24 h exposure; details: Table 6, structure-activity series
substance,measurement,setting,value
isoeugenol,LC50 (mg/L) (95% CI),[1],81.26 (71.39–88.47) mg/L
same,LC50 (mg/L) (95% CI),[2],79.72 (68.33–92.65) mg/L
